This is an account of results in patent US10278957B2, “Opioid agonist peptides and uses thereof” (Protagonist Therapeutics, Inc., priority 2017, dated 2019).

Amino acid sequences for entries named in this document (tags omitted).
UniProt P35372, whole entry: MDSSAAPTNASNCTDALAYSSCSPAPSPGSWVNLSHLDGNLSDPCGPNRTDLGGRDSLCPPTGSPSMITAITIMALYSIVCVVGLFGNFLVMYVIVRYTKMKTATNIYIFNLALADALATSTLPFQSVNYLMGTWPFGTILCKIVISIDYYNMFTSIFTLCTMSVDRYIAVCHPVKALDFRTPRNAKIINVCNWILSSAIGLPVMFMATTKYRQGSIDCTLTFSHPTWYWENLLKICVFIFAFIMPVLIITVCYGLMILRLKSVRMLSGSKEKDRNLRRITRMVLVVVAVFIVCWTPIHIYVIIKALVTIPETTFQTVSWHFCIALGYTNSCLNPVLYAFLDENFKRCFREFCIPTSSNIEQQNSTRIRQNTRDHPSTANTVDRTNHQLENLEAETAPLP

Usually EC50 stands for the concentration needed to bring the measured effect to its halfway point.

One assay addresses T1, δ-opioid receptor (DOR) (Homo sapiens, UniProt P41143).
T1 construct: host or cells: cAMP Hunter CHO-K1 OPRD1 Gαi cell line
In words: DOR agonist cAMP assay (HitHunter cAMP, forskolin-stimulated). The class given is cell-based. As for the experimental part:
(§1) The HitHunter® cAMP chemiluminescent assay kit (DiscoveRx, Cat# 90-0075 SM25) was used to detect cAMP production in cAMP Hunter™ Gαi cell lines over expressing either Human-ORPM1 (Discoverx, Catalog# 95-0107C2) or Human-ORPD1 (DiscoveRx, Catalog# 95-0108C2). Opioid agonist binding to the Gαi receptors inhibits the intracellular cAMP accumulation induced by forskolin, which activates adenylate cyclase and increases intracellular levels of cAMP.
(§2) Cells were cultured in media consisting of Ham's F-12 Nutrient Mix (Life Technologies, Catalog#31765035), 10% FBS (Life Technologies, Catalog# 16140-071), 4 mM GlutaMAX (Life Technologies, Catalog#35050-061), […] (Life Technologies), 100 ug/ml of Penn-Strep (Life Technologies) and 0.5 mg/ml Geneticin (Life Technologies, Catalog# 10131-027). The cultures were maintained at 37° C. under 5% CO2.
(§3) In preparation for cAMP assay, the cells were seeded at a density of 300,000 cells/ml in 100 ul of media/well in 96-well microplate. Wells that were designated for cAMP standards were left empty.
(§4) Opioid agonist serial dilutions were prepared in separate dilution plate (11-point series of 3× (3-fold) dilution) in Cell Assay buffer, including 3× forskolin for Gαi target. For Hunter CHO-K1 OPRM1 or CHO-K1 OPRD1 Gαi Cell Lines, the final forskolin concentration was 20 uM.
(§5) 15 ul of each 3× opioid agonist serial dilution was added in the presence of forskolin in duplicate to the designated wells. The final concentration of each dilution was at 3× of the final screening concentration. […]
(§6) Cellular cAMP concentrations were measured using the HitHunter cAMP Assay kit following the manufacturer's protocol. […] The amount of signal is directly proportional to the amount of cAMP in cells and can be quantified using cAMP standards. The assay plates were read using a PerkinElmer Envision instrument to detect the chemiluminescence signal in each well (luminescence reader at 0.1 to 1 second/well). Data analysis was performed using Graphpad Prism 7.EC50 was calculated by nonlinear regression, using the four-parameter hill equation.

For another assay, the target named is T2, μ-opioid receptor (MOR) (Homo sapiens, UniProt P35372).
T2 construct: host or cells: cAMP Hunter CHO-K1 OPRM1 Gαi cell line
In words: MOR agonist cAMP assay (HitHunter cAMP, forskolin-stimulated). It is filed as cell-based. As for the experimental part: as §1, §2, §3, §4, §5, §6
In general terms: Cyclic AMP is a second messenger, typically raised through Gs and lowered through Gi signalling.

Turning to `Cc1cc(O)cc(C)c1C[C@H](N)C(=O)N[C@H](CCCNC(=N)N)C(=O)N[C@H](Cc1ccccc1)C(=O)N[C@@H](CCCCN)C(=O)O` [compound 1], the values for the EC50 at δ-opioid receptor (DOR) and on μ-opioid receptor (MOR) were greater than 200 nM and 10 to 50 nM, respectively.

`Cc1cc(O)cc(C)c1C[C@H](N)C(=O)N[C@H](CCCNC(=N)N)C(=O)N[C@@H](Cc1ccccc1)C(=O)N[C@H](CCCCN)C(N)=O` [compound 2]: the half-maximal effective concentration (EC50) on δ-opioid receptor (DOR) was greater than 200 nM; on μ-opioid receptor (MOR), less than 1 nM.

For the compound `Cc1cc(O)cc(C)c1C[C@H](N)C(=O)N[C@H](CCCNC(=N)N)C(=O)N[C@@H](Cc1ccccc1)C(=O)N[C@@H](CCCCN)C(N)=O` [compound 7], the results for the EC50 at δ-opioid receptor (DOR) and on μ-opioid receptor (MOR) were 10 to 50 nM and less than 1 nM, respectively.
